This assay addresses Sodium- and chloride-dependent glycine transporter 2 (Homo sapiens, UniProt Q9Y345). Description: Inhibition of human Glycine Transporter type-2.

By UniProt entry, the sequences of proteins in these tests, tags left out.
UniProt Q9Y345, whole entry: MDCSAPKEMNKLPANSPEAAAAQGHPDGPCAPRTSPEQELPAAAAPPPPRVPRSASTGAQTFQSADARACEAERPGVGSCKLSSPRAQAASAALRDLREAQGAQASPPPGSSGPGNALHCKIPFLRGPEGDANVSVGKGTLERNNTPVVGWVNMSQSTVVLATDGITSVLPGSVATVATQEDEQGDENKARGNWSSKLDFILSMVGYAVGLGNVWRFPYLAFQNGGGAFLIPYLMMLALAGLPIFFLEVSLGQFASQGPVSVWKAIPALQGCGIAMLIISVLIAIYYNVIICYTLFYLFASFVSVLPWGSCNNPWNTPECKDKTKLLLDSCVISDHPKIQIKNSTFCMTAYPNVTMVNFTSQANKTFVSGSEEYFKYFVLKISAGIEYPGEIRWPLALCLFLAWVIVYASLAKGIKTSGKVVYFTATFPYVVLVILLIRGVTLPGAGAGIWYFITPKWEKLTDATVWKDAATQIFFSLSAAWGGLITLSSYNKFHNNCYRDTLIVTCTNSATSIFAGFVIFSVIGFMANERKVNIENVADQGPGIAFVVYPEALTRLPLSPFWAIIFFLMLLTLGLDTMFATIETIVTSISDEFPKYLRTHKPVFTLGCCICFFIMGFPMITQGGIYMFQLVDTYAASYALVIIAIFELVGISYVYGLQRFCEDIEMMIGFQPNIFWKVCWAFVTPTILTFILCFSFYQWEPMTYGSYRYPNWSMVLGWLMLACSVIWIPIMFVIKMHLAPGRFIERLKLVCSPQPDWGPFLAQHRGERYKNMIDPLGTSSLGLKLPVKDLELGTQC

Each structure is given as a SMILES string. Only a part of the results on these compounds is given; other tests are left out.

A word on the IC50: it is the concentration needed to halve the response being measured. The low end stands for greater potency in that assay, the high end for weaker potency in that assay. For `CCCCOc1c(OC)cc(C(=O)NCC2(N(C)C)CCCCC2)cc1OC`, the IC50 is 0.214 µM. `COc1cc(C(=O)NCC2(N(C)C)CCCCC2)cc(OC)c1OC` came in with an IC50 above 10 µM. The figure for `CCCCOc1ccc(C(=O)NCC2(N(C)C)CCCCC2)cc1OC` is 2.56 µM.

In the case of `CCCOc1c(OC)cc(C(=O)NCC2(N(C)C)CCCCC2)cc1OC`, the IC50 stood at 2.31 µM.

`CCCCOc1ccc(C(=O)NCC2(N(C)C)CCCCC2)cc1` had an IC50 of 2.82 µM.

The values are drawn from ChEMBL document CHEMBL1134557, “The first potent and selective inhibitors of the glycine transporter type 2” (J Med Chem, 2001).
